Test results taken from ChEMBL document CHEMBL5257080, “Optimization of physicochemical properties of pyrrolidine GPR40 AgoPAMs results in a differentiated profile with improved pharmacokinetics and reduced off-target activities” (Bioorg Med Chem, 2023).

Protein sequences, listed by entry. Tags and fused reporters are not part of them.
UniProt O14842, whole entry: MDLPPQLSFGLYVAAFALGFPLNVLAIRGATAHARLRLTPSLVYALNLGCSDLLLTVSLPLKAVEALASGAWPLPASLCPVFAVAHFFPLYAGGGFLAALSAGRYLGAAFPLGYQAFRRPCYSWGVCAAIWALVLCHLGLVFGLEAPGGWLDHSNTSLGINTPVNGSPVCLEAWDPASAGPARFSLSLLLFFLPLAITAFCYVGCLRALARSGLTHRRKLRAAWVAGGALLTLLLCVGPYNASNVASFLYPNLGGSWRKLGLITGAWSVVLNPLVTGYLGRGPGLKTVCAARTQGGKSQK

Biological target: Free fatty acid receptor 1 (Homo sapiens, UniProt O14842)
Assay: Positive allosteric modulation of human GPR40 expressed in HEK293 cells assessed as maximum efficacy relative to control
Assay type: cell-based
Conditions: filed as positive allosteric modulator

| Emax | Compound |
| --- | --- |
| 92% | COc1ccc(F)c(N2CCC(Oc3ccc(N4CCC[C@@H]4CC(=O)O)cc3)CC2)c1 |
| 62% | COc1ccc(F)c(N2CCC(Oc3ccc(N4CCC[C@H]4CC(=O)O)cc3)CC2)c1 |
